Values quoted from earlier work in patent publication US7825126B2 (The United States of America as represented by the …, priority 2004, dated 2010).

The chains behind the UniProt entries cited, without tags or fusion partners.
UniProt P0DMS8, whole entry: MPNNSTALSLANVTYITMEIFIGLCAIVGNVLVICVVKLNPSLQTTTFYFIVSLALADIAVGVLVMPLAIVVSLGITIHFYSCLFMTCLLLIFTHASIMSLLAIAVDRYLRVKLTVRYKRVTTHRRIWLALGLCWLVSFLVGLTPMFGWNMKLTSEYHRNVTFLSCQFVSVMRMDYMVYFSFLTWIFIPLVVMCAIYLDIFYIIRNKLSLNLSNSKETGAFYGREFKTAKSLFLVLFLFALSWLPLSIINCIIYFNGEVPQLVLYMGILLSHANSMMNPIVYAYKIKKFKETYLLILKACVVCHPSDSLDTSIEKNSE

Target: human A3 adenosine receptor (Homo sapiens, UniProt P0DMS8)
Design: expressed in transfected cells; host or cells: CHO cells
Details: relative to 10 μM Cl-IB-MECA, data from literature (footnotes c, d, e, f); cited from earlier work

## CNc1ncnc2c1ncn2C1OC(CO)C(O)C1O (stereo not shown) [Compound 6]
  % Activation (hA3AR) at 10 μM: 96 ± 3%
